Assay results reported in US9474749B2, “Morphine and morphine precursors” (priority 2004, dated 2016).

Tested on: mu3 opiate receptor

CN1CC[C@]23c4c5ccc(O)c4O[C@H]2[C@@H](O)C=C[C@H]3[C@H]1C5 [Morphine, morphine]
mu3 opiate receptor binding (daily 0.01 μM morphine): did not
mu3 opiate receptor binding (daily 1 μM morphine): reduced mu3 opiate receptor binding

Read-outs that look alike come from different tables or passages of the source.
